This note sets out measurements from patent US10730889B2, “Amido spirocyclic amide and sulfonamide derivatives” (Forma TM, LLC, priority 2012, dated 2020).

The chains behind the UniProt entries cited, without tags or fusion partners. Where a name states a change or a piece, a line headed by the entry shows the natural chain unless it says otherwise.
UniProt P43490: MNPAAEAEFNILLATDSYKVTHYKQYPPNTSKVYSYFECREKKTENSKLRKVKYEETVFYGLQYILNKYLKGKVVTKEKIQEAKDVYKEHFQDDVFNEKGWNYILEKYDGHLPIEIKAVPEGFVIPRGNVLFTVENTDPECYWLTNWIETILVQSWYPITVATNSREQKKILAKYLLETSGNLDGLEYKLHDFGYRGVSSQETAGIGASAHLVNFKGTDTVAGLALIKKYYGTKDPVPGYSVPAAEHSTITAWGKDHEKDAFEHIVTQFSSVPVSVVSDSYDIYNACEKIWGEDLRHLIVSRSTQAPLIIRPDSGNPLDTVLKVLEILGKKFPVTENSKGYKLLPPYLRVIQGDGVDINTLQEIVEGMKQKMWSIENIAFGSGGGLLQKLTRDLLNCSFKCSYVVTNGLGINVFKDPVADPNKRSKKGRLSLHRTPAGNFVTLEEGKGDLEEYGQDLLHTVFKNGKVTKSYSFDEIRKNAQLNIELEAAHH

This assay concerns the target NAMPT (Homo sapiens (Human), UniProt P43490). The experiment in a line: Biochemical inhibition assay (NAMPT enzymatic reaction, NMN quantified by mass spectrometry).
`CC(C)(CO)OC(=O)N1CCC2(CC1)CC2CNC(=O)N1Cc2ccncc2C1` (stereo not drawn): the half-inhibitory concentration (IC50) (usually the concentration that gives 50% inhibition) was 28.8 nM.
In the case of `CC(=O)NCC(C)(C)OC(=O)N1CCC2(CC1)CC2CNC(=O)N1Cc2ccncc2C1` (stereo not drawn) it was 20.2 nM.
In the case of `CC(C)(O)COC(=O)N1CCC2(CC1)CC2CNC(=O)N1Cc2ccncc2C1` (stereo not drawn) it was 67.5 nM.
Molecule `Cc1nn(C)c(C)c1C(=O)N1CCC2(CC1)CC2CNC(=O)c1cc2ccncc2o1` (single isomer, unassigned) [Example 300, N-[[6-(1,3,5-trimethylpyrazole-4-carbonyl)-6-azaspiro[2.5]octan-2-yl]methyl]furo[2,3-c]pyridine-2-carboxamide] showed a concentration for half-maximal inhibition (IC50) of 1130 nM.
In the case of `Cc1nn(C)c(C)c1C(=O)N1CCC2(CC1)CC2CNC(=O)c1cc2ccncc2o1` (single isomer, unassigned) [Example 301, N-[[6-(1,3,5-trimethylpyrazole-4-carbonyl)-6-azaspiro[2.5]octan-2-yl]methyl]furo[2,3-c]pyridine-2-carboxamide] it was 42.5 nM; in that of `Cc1nc(C)c(C(=O)N2CCC3(CC2)CC3CNC(=O)c2cc3ccncc3o2)o1` (single isomer, unassigned) [Example 384, N-[[6-(2,4-dimethyloxazole-5-carbonyl)-6-azaspiro[2.5]octan-2-yl]methyl]furo[2,3-c]pyridine-2-carboxamide (single isomer)], 928 nM.
Next, `O=C(NCC1CC12CCN(C(=O)C1CCOCC1)CC2)c1cc2cnccc2[nH]1` (stereo not drawn) [Example 10, N-[[8-(tetrahydropyran-4-carbonyl)-8-azaspiro[2.5]octan-2-yl]methyl]-1H-pyrrolo[3,2-c]pyridine-2-carboxamidc]: 208 nM; `CC(C)(C)OC(=O)N1CCC2(CC1)CC(CNC(=O)c1ccc3nccn3c1)C2` [Example 21, tert-butyl 2-((imidazo[1,2-a]pyridine-6-carboxamido)methyl]-7-azaspiro[3.5]nonane-7-carboxylate]: 175 nM.
Next, `O=C(NCC1CC12CCN(C(=O)Cn1ccnc1)CC2)c1cc2ccncc2o1` (stereo not drawn) [Example 26, N-[[6-(2-imidazol-1-ylacetyl)-6-azaspiro[2.5]octan-2-yl]methyl]furo[2,3-c]pyridine-2-carboxamide]: 304 nM; `O=C(NCC1CC12CCN(C(=O)CCC(F)(F)F)CC2)c1cc2ccncc2o1` (stereo not drawn) [Example 27, N-[[6-(4,4,4-trifluorobutanoyl)-6-azaspiro[2.5]octan-2-yl]methyl]furo[2,3-c]pyridine-2-carboxamide]: 50.4 nM.
Molecule `CS(=O)(=O)c1cccc(CC(=O)N2CCC3(CC2)CC3CNC(=O)c2cc3ccncc3o2)c1` (stereo not drawn) [Example 28, N-[[6-[2-(3-methylsulfonylphenyl)acetyl]-6-azaspiro[2.5]octan-2-yl]methyl]furo[2,3-c]pyridine-2-carboxamide] gave an IC50 of 64.2 nM.
For the molecule `CC(C)(C)CC(=O)N1CCC2(CC1)CC2CNC(=O)c1cc2ccncc2o1` (stereo not drawn) [Example 29, N-[[6-(3,3-dimethylbutanoyl)-6-azaspiro[2.5]octan-2-yl]methyl]furo[2,3-c]pyridine-2-carboxamide], the IC50 turned out to be 11.1 nM.
`N#Cc1cccc(CC(=O)N2CCC3(CC2)CC3CNC(=O)c2cc3ccncc3o2)c1` (stereo not drawn) [Example 31, N-[[6-[2-(3-cyanophenyl)acetyl]-6-azaspiro[2.5]octan-2-yl]methyl]furo[2,3-c]pyridine-2-carboxamide] showed an IC50 of 37.3 nM.
Turning to `O=C(NCC1CC12CCN(C(=O)CN1CCCC1)CC2)c1cc2ccncc2o1` (stereo not drawn) [Example 33, N-[[6-(2-pyrrolidin-1-ylacetyl)-6-azaspiro[2.5]octan-2-yl]methyl]furo[2,3-c]pyridine-2-carboxamide], the IC50 came out at 1120 nM.
`Cc1cc(CC(=O)N2CCC3(CC2)CC3CNC(=O)c2cc3ccncc3o2)on1` (stereo not drawn) [Example 34, N-[[6-[2-(3-methylisoxazol-5-yl)acetyl]-6-azaspiro[2.5]octan-2-yl]methyl]furo[2,3-c]pyridine-2-carboxamide] had an IC50 of 54.2 nM.
In the case of `O=C(NCC1CC12CCN(C(=O)CN1CCCCC1)CC2)c1cc2ccncc2o1` (stereo not drawn) [Example 35, N-[[6-[2-(1-piperidyl)acetyl]-6-azaspiro[2.5]octan-2-yl]methyl]furo[2,3-c]pyridine-2-carboxamide] it was 563 nM; in that of `O=C(NCC1CC12CCN(C(=O)CC1CCOCC1)CC2)c1cc2ccncc2o1` (stereo not drawn) [Example 36, N-[[6-(2-tetrahydropyran-4-ylacetyl)-6-azaspiro[2.5]octan-2-yl]methyl]furo[2,3-c]pyridine-2-carboxamide], 89.3 nM.
In the case of `O=C(NCC1CC12CCN(C(=O)CC1CCCO1)CC2)c1cc2ccncc2o1` (stereo not drawn) [Example 37, N-[[6-(2-tetrahydrofuran-2-ylacetyl)-6-azasptro[2.5]octan-2-yl]methyl]furo[2,3-c]pyridine-2-carboxamide] it was 155 nM; in that of `CC(C)(C)OCC(=O)N1CCC2(CC1)CC2CNC(=O)c1cc2ccncc2o1` (stereo not drawn) [Example 38, N-[[6-(2-tert-butoxyacetyl)-6-azaspiro[2.5]octan-2-yl]methyl]furo[2,3-c]pyridine-2-carboxamide], 40 nM.
Next, `O=C(NCC1CC12CCN(C(=O)Cc1cccnc1)CC2)c1cc2ccncc2o1` (stereo not drawn) [Example 39, N-[[6-[2-(3-pyridyl)acetyl]-6-azaspiro[2.5]octan-2-yl]methyl]furo[2,3-c]pyndine-2-carboxamide]: 47 nM; `O=C(NCC1CC12CCN(C(=O)CC1CCN(CC(F)(F)F)CC1)CC2)c1cc2cnccc2[nH]1` (stereo not drawn) [Example 40, N-[[6-[2-[1-(2,2,2-trifluoroethyl)-4-piperidyl]acetyl]-6-azaspiro[2.5]octan-2-yl]methyl]-1H-pyrrolo[3,2-c]pyridine-2-carboxamide]: 130 nM; `CC(C)CC(=O)N1CCC2(CC1)CC2CNC(=O)c1cc2cnccc2[nH]1` (stereo not drawn) [Example 46, N-[[6-(3-methylbutanoyl)-6-azaspiro[2.5]octan-2-yl]methyl]-1H-pyrrolo[3,2-c]pyridine-2-carboxamide]: 120 nM.
The molecule `O=C(Cc1ccccc1)N1CCC2(CC1)CC2CNC(=O)N1Cc2ccncc2C1` (stereo not drawn) [Example 47, N-[[6-(2-phenylacetyl)-6-azaspiro[2.5]octan-2-yl]methyl]-1,3-dihydropyrrolo[3,4-c]pyridine-2-carboxamide] had a 50% inhibitory concentration (IC50) of 4.59 nM.
Next, `O=C(NCC1CC12CCN(C(=O)Cc1cnccn1)CC2)c1cc2ccncc2o1` (stereo not drawn) [Example 50, N-[[6-(2-pyrazin-2-ylacetyl)-6-azasptro[2.5]octan-2-yl]methyl]furo[2,3-c]pyridine-2-carboxamide]: 309 nM; `O=C(NCC1CC12CCN(C(=O)CN1CCOCC1)CC2)c1cc2ccncc2o1` (stereo not drawn) [Example 51, N-[[6-(2-morpholinoacetyl)-6-azaspiro[2.5]octan-2-yl]methyl]furo[2,3-c]pyridine-2-carboxamide]: 173 nM.
In the case of `O=C(NCC1CC12CCN(C(=O)CC1CCCCO1)CC2)c1cc2ccncc2o1` (stereo not drawn) [Example 52, N-[[6-(2-tetrahydropyran-2-ylacetyl)-6-azaspiro[2.5]octan-2-yl]methyl]furo[2,3-c]pyridine-2-carboxamide] it was 135 nM; in that of `CC(C(=O)N1CCC2(CC1)CC2CNC(=O)c1cc2ccncc2o1)N1CCCC1` (stereo not drawn) [Example 53, N-[[6-(2-pyrrolidin-1-ylpropanoyl)-6-azaspiro[2.5]octan-2-yl]methyl]furo[2,3-c]pyridine-2-carboxamide], 420 nM.
Next, `CN(C)C(=O)CCC(=O)N1CCC2(CC1)CC2CNC(=O)c1cc2ccncc2o1` (stereo not drawn) [Example 55, N-[[6-[4-(dimethylamino)-4-oxo-butanoyl]-6-azaspiro[2.5]octan-2-yl]methyl]furo[2,3-c]pyridine-2-carboxamide]: 1060 nM.
For the molecule `CN1CC(C(=O)N2CCC3(CC2)CC3CNC(=O)c2cc3ccncc3o2)CC1=O` (stereo not drawn) [Example 56, N-[[6-(1-methyl-5-oxo-pyrrolidine-3-carbonyl)-6-azaspiro[2.5]octan-2-yl]methyl]furo[2,3-c]pyridine-2-carboxamide], the half-maximal inhibitory concentration (IC50) is 575 nM.
In the case of `O=C(NCC1CC12CCN(C(=O)CN1CCCC1=O)CC2)c1cc2ccncc2o1` (stereo not drawn) [Example 57, N-[[6-[2-(2-oxopyrrolidin-1-yl)acetyl]-6-azaspiro[2.5]octan-2-yl)methyl]furo[2,3-c]pyridine-2-carboxamide] it was 223 nM; in that of `O=C(NCC1CC12CCN(C(=O)C1CC1(F)F)CC2)c1cc2ccncc2o1` (stereo not drawn) [Example 58, N-[[6-(2,2-difluorocyclopropanecarbonyl)-6-azaspiro[2.5]octan-2-yl]methyl]furo(2,3-c]pyridine-2-carboxamide], 422 nM; in that of `O=C(NCC1CC12CCN(C(=O)C1CCOC1)CC2)c1cc2ccncc2o1` (stereo not drawn) [Example 59, N-[[6-(tetrahydrofuran-3-carbonyl)-6-azaspiro[2.5]octan-2-yl]methyl]furo[2,3-c]pyridine-2-carboxamide], 782 nM.
`O=C(NCC1CC12CCN(C(=O)C1CCOCC1)CC2)c1cc2ccncc2o1` (stereo not drawn) [Example 60, N-[[6-(tetrahydropyran-4-carbonyl)-6-azaspiro[2.5]octan-2-yl]methyl]furo[2,3-c]pyridine-2-carboxamide] yielded an IC50 of 309 nM.
The molecule `O=CNCC(=O)N1CCC2(CC1)CC2CNC(=O)c1cc2ccncc2o1` (stereo not drawn) [Example 62, N-[[6-(2-formamidoacetyl)-6-azaspiro[2.5]octan-2-yl]methyl]furo[2,3-c]pyridine-2-carboxamide] yielded a half-maximal inhibitory concentration (IC50) of 395 nM.
For `Cc1cc(C)n(CCC(=O)N2CCC3(CC2)CC3CNC(=O)c2cc3ccncc3o2)n1` (stereo not drawn) [Example 63, N-[[6-[3-(3,5-dimethylpyrazol-1-yl)propanoyl]-6-azaspiro[2.5]octan-2-yl]methyl]furo[2,3-c]pyridine-2-carboxamide], the concentration for half-maximal inhibition (IC50) stood at 177 nM.
Next, `NC(=O)N1CCCC1C(=O)N1CCC2(CC1)CC2CNC(=O)c1cc2ccncc2o1` (stereo not drawn) [Example 64, N-[[6-(1-carbamoylpyrrolidine-2-carbonyl)-6-azaspiro[2.5]octan-2-yl]methyl]furo[2,3-c]pyridine-2-carboxamide]: 398 nM.
